Screens as filed in PubChem.
GIV Gai3 FP – GIV-Galpha-i interaction inhibition. P08753. Galpha-i3/FITC-GIV peptide fluorescence polarization, 90 min; active compounds read low; scaled: aluminum fluoride 0%, vehicle 100%. percent of control (FP), % (test concentration not listed). 210,000 compounds, 0.42% hits. AID 1224905;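 active = replicate mean at 85% of control or lower, very high polarization wells dropped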;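 also: lower values mean more displacement of the GIV peptide from Galpha-i3; wells of about 15 µL received 100 nL stock; the first replicate is given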
HCMV UL50-53 inh – inhibitors of HCMV UL50-UL53 interaction, biochemical, HTRF; HCMV UL50-UL53 nuclear egress complex (human cytomegalovirus); normalized percent inhibition; inhibition, % (test concentration not listed); 190,000 compounds, 0.15% hits; AID 1918969, 2023; in the data active = inhibition above about 27%, passing the limit was not always enough
GIV-Gai FP conf – inhibitors of GIV peptide binding to Galpha-i3, confirmation, biochemical, fluorescence polarization, FITC-GIV peptide, rat Galphai3; shares compounds with GIV Gai3 FP; stronger effect = lower value; fluorescence polarization, mP at 100 µM; 580 compounds, 38% hits; AID 1259350, 2017;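 active = inhibition score of 15 or more, meaning 100 minus mean polarization as percent of control over three replicates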
GIV-Gai AS conf – inhibitors of GIV binding to Galpha-i3, confirmation, orthogonal assay for GIV-Galpha-i inhibitor project, biochemical, AlphaScreen, His-GIV, GST-Galphai3; purified proteins, 90 min; stronger effect = lower value; AlphaScreen counts at 100 µM; 580 compounds, 39% hits; shares compounds with GIV Gai3 FP;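 active = inhibition score at or above a set limit, where the score is 100 minus the three-replicate mean percent of control signal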
The depositor's hits bear a star; nt = not tested or not shown. Compounds with a hit are over-represented: about 0.46% of the library has one in this group of screens.

SMILES	GIV Gai3 FP	HCMV UL50-53 inh	others
CCOC(=O)c1ccc2c(c1)nc(SCC(=O)NC(C)C(C)C)n2CC (configuration not stated)	nt	-7.9
Cc1nn(-c2ccc3nnc(C)n3n2)c2c1C(c1ccccc1F)CC(=O)N2 (configuration not stated)	98.2	nt
N#C/C(=C/c1ccc(-c2ccc(C(=O)O)cc2)o1)c1ccc(Cl)cc1	113.3	-92.1
Cc1ccc2nc(/C(C#N)=C/c3ccc(-c4cccc(Cl)c4)o3)[nH]c2c1	243.1	-50.7
N#C/C(=C\c1ccc(-c2ccc(C(=O)O)cc2)o1)c1nc2ccccc2[nH]1	-6.1*	-26.0
N#C/C(=C\c1ccc(-c2ccc(Cl)c(C(=O)O)c2)o1)c1nc2ccccc2[nH]1	-57.5*	-76.2
Cc1[nH]c(C(=O)N2CCCC(C(=O)N3CCN(c4ccccc4)CC3)C2)c(C)c1C(=O)OC(C)C (configuration not stated)	99.1	-2.5
CC(C)(C)c1csc(-c2csc(S(=O)(=O)N3CCN(c4ccccn4)CC3)c2)n1	105.3	nt
CCCCCCCCCCCSCC(=O)O	nt	0.4
O=C(Cn1c(=O)c2cccn2c2ccc(F)cc21)NC1CCN(Cc2ccccc2)CC1	101.8	6.8
Cc1oc2c(c1C(=O)NC1CCCCC1)C(=O)c1ccccc1C2=O	99.7	-38.2
O=C(O)c1cc(N2CCN(c3ccccc3F)CC2)nc2ccc(NC(=O)C3CC3)cc12	107.1	-41.2
COc1cccc2c1C(=O)c1c(O)c3c(c(O)c1C2=O)C[C@@](O)(C(C)=O)C[C@@H]3O[C@H]1C[C@H](N)[C@H](O)[C@H](C)O1	46.8*	-180.6
COc1cccc2c1C(=O)c1c(O)c3c(c(O)c1C2=O)C[C@@](O)(C(=O)CO)CC3O[C@H]1CC(N)C(O)C(C)O1 (some centres not stated)	nt	-190.3
COc1cccc2c1C(=O)c1c(O)c3c(c(O)c1C2=O)C[C@@](O)(C(C)=O)CC3O[C@H]1CC(N)C(O)C(C)O1 (some centres not stated)	nt	-249.3
CC(=O)[C@]1(O)Cc2c(O)c3c(c(O)c2[C@@H](O[C@H]2C[C@H](N)[C@H](O)[C@H](C)O2)C1)C(=O)c1ccccc1C3=O	-45.9*	-145.0
COC(=O)CNC(=O)c1ccn[nH]1	nt	-18.2
COc1ccc(Br)cc1CN1CCCC1c1cc(C(C)C)on1 (configuration not stated)	106.3	nt
CCOc1ccc(-c2ccc(SCc3nc(-c4ccc(OC)c(OC)c4)no3)nn2)cc1	107.6	-14.3
CN1C(=O)CSc2ccc(NC(=O)Nc3cccnc3)cc21	101.0	34.7*
Cc1ccc(NC(=O)Nc2ccc3c(c2)N(C)C(=O)CS3)cc1	106.5	nt
Cc1cc(C)c(/C=C/c2onc(C)c2S(=O)(=O)N2CCCC(C(=O)N3CCCCC3)C2)c(C)c1 (configuration not stated)	101.7	-8.8
N#Cc1c(N)nc(SCC(=O)c2ccc3ccccc3c2)c(C#N)c1-c1ccccc1	97.3	20.8*
CCOc1ccc(-c2c(C#N)c(N)nc(SCC(=O)c3ccccc3)c2C#N)cc1	102.3	-10.6
CCOC(=O)CC(=O)CSc1nc(N)c(C#N)c(-c2cccs2)c1C#N	110.5	nt
CCOC(=O)CSc1nc(N)c(C#N)c(-c2ccc(OCC)cc2)c1C#N	105.5	43.6*
COC(=O)CSc1nc(N)c(C#N)c(-c2ccccc2)c1C#N	102.8	32.8
N#Cc1c(N)nc(SCC(N)=O)c(C#N)c1-c1ccc(Br)cc1	105.1	66.1*
CC(C)(C)C(=O)CSc1nc(N)c(C#N)c(-c2cccs2)c1C#N	nt	59.7*
COc1cc(-c2c(C#N)c(N)nc(SCC(N)=O)c2C#N)cc(OC)c1OC	109.6	nt
O=C(NCCOc1nnc(-c2ccccc2)o1)c1c(F)cccc1F	100.5	-11.8
CC(=O)N1c2ccccc2CC1C(=O)NCCc1c[nH]c2ccccc12 (configuration not stated)	104.6	-17.7
COCCNC(=O)Cc1nc2ccccc2n1CC(=O)Nc1ccc(S(=O)(=O)N2CCCC2)cc1	nt	1.3
O=C(Nc1ccc2nc3n(c(=O)c2c1)CCC3)Nc1ccc(F)cc1F	98.1	-3.4
Cn1nnc2c(Nc3cc(F)ccc3F)ncnc21	108.7	nt
Cc1ccc(-c2noc3ncnc(N4CCC(C(=O)NC5CCCC5)CC4)c23)cc1	101.8	nt
Cc1ccccc1-c1nnc2sc(NC(=O)C(C)C)nn12	95.5	-6.9
O=C(O)c1cc(NC(=O)c2cccc(N3C(=O)c4cccc5c([N+](=O)[O-])ccc(c45)C3=O)c2)cc(C(=O)O)c1	84.7*	-20.1
O=C(O)c1cccc(N2C(=O)c3ccc4c5c(ccc(c35)C2=O)C(=O)N(c2cccc(C(=O)O)c2)C4=O)c1	104.7	-43.1
Cc1ccc2nc(Sc3ccccc3)c(/C=C3\SC(=S)N(C)C3=O)c(=O)n2c1	-36.2*	nt

Random excerpt: seven compounds from above.
SMILES	GIV Gai3 FP	HCMV UL50-53 inh	others
N#Cc1c(N)nc(SCC(N)=O)c(C#N)c1-c1ccc(Br)cc1	105.1	66.1*
Cc1ccc2nc(Sc3ccccc3)c(/C=C3\SC(=S)N(C)C3=O)c(=O)n2c1	-36.2*	nt
CC(C)(C)C(=O)CSc1nc(N)c(C#N)c(-c2cccs2)c1C#N	nt	59.7*
CCOc1ccc(-c2c(C#N)c(N)nc(SCC(=O)c3ccccc3)c2C#N)cc1	102.3	-10.6
Cc1cc(C)c(/C=C/c2onc(C)c2S(=O)(=O)N2CCCC(C(=O)N3CCCCC3)C2)c(C)c1 (configuration not stated)	101.7	-8.8
CCOC(=O)CC(=O)CSc1nc(N)c(C#N)c(-c2cccs2)c1C#N	110.5	nt
O=C(Nc1ccc2nc3n(c(=O)c2c1)CCC3)Nc1ccc(F)cc1F	98.1	-3.4

Additional records follow:
SMILES	GIV Gai3 FP	HCMV UL50-53 inh	others
CNc1nc2ccccn2c(=O)c1/C=C1\SC(=S)N(C)C1=O	138.3	nt
CN(CCc1noc(-c2ccc(C(=O)NCc3ccccc3F)cc2)n1)C(=O)c1ccc(Cl)cc1	106.5	nt
N#CCn1c(CSc2ccc3c(c2)OCCO3)nc2ccccc2c1=O	nt	-30.2
Cc1ccc(CNC(=O)c2cn(C)c3ccc(S(=O)(=O)N(C)C)cc3c2=O)cc1	105.3	-13.4
COC(=O)CN(C#N)c1nc(NCc2ccccc2)nc(OC)n1	109.6	54.0*
COC(=O)CN(C#N)c1nc(C)cc(C)n1	97.8	1.3
CC1C(C#N)=C(N)SC(N)=C1C#N	-20.3*	29.5
CCCC1C(C#N)=C(N)SC(N)=C1C#N	nt	-11.0
O=C(Nc1nc2n(n1)C(c1ccccc1)C=C(c1ccccc1)N2)c1ccco1 (configuration not stated)	130.4	-33.1
O=C(O)CCC(=O)Nc1nc2n(n1)C(c1ccccc1)C=C(c1ccccc1)N2 (configuration not stated)	83.2*	-26.2
CCOc1ccc(N2C(=O)c3cc4sccc4n3CC2(C)C(=O)NC2CCC(C)CC2)cc1 (configuration not stated)	100.0	-2.8
Cc1cc(C=Nc2ccc(O)c(C(=O)O)c2)c(C)n1-c1ccc(N(C)C)cc1	nt	-12.0
Cc1[nH][nH]c(=O)c1C=Nc1ccc(O)c(C(=O)O)c1	87.9	3.7	GIV-Gai FP conf=63.4;GIV-Gai AS conf=6341*
CC(=O)Nc1ccccc1N1CCCCC1	98.0	1.8
CC1=CC(=Nc2c(C)n(C)n(-c3ccccc3)c2=O)c2ccccc2C1=O	106.8	-23.4
Cc1c(N=c2c(=O)c3ccccc3c2=O)c(=O)n(-c2ccccc2)n1C	61.9*	nt	GIV-Gai FP conf=47.5*;GIV-Gai AS conf=26896
CC(C)c1cccc(NC(=NCc2ccncc2)NC(=O)c2ccc(CN3CCOCC3)cc2)c1	105.2	-25.1
